Experimental data: paper PMC2919064 (Journal of medicinal chemistry, 2010)

Chains of the proteins cited; added tags and fusions are not shown.
UniProt Q13547, whole entry: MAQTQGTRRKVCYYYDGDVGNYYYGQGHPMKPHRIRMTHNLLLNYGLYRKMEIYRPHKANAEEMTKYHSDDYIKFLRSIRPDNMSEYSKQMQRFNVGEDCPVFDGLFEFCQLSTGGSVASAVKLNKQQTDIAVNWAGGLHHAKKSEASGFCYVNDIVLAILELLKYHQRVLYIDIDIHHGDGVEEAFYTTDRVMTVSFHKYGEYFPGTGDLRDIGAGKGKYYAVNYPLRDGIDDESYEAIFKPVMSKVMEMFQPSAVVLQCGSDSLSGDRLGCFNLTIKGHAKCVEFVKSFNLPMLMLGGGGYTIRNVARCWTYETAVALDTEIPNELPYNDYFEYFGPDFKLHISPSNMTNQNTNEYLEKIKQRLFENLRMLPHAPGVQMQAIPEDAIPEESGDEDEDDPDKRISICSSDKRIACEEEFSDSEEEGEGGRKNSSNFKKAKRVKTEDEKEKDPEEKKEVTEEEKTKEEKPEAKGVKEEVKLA

Assays:
HDAC1 = HDAC1 (Homo sapiens, UniProt Q13547); experiment: HDAC isoform inhibition assay
HDAC6 = molecular target: T1, HDAC6 (Homo sapiens, UniProt Q9UBN7); experiment: HDAC isoform inhibition assay
T1 sequence (Q9UBN7 1-1215): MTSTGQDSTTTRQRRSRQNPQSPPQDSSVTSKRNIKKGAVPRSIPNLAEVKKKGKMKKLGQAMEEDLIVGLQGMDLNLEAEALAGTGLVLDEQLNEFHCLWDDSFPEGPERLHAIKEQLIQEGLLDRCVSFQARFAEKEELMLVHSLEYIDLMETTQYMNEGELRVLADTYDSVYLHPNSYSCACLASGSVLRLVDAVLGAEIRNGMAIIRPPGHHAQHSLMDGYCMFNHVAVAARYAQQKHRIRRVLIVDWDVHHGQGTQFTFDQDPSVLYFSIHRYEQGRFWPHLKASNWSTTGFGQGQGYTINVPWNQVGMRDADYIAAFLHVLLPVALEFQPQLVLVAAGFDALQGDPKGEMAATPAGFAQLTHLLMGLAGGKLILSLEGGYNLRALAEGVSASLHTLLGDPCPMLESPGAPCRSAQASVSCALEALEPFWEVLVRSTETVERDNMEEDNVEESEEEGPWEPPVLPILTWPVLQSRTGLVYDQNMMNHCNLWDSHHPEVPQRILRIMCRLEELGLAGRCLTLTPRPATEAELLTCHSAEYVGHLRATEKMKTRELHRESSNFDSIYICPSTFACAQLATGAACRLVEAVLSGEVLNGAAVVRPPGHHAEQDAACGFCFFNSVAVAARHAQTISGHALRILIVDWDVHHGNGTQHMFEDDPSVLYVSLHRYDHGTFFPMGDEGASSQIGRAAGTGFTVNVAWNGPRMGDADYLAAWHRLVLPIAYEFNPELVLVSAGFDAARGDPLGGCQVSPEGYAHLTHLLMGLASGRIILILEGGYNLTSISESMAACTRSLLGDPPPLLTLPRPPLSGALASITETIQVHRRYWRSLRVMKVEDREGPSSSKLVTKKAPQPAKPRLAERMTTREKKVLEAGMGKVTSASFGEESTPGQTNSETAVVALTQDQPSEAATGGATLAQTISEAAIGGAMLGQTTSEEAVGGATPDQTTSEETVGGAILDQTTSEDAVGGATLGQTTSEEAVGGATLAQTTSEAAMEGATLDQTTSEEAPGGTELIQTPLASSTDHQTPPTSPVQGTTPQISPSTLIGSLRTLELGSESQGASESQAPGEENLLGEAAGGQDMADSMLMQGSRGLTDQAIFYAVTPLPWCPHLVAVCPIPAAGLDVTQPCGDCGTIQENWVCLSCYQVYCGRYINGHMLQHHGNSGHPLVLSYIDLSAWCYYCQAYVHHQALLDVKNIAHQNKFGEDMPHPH

## Nc1cccc(-n2cc(-c3cccc(NC(=O)CCCCCCC(=O)NO)c3)nn2)c1
HDAC1
  IC50: 1.01 nM
HDAC6
  IC50: 2.52 nM
